Earlier results, collected in publication PMC8387964.
pKd: −log10 of the molar value.

Biological target: p67phox (Homo sapiens) (UniProt P19878)

For Rac1 (from UniProt P63000), the pKd is given as 6.91.
